Results from ChEMBL document CHEMBL1687796, “Synthesis and spectrum of the neoglycoside ACHN-490” (2010).

What was measured:
Staphylococcus aureus [1] = tested on: Staphylococcus aureus
Staphylococcus aureus [2] = tested on: Staphylococcus aureus; remark: listed apart in the source
Staphylococcus aureus [3] = details: ATCC 29213

Measured: MIC

GENTAMICIN
0.5 µg/mL: all assays above
